Molecular target: Kappa-type opioid receptor (Homo sapiens, UniProt P41145)

Chains of the proteins cited; added tags and fusions are not shown. Lines headed by an entry give the natural chain unless they say otherwise; changes in a name come on top.
UniProt P41145: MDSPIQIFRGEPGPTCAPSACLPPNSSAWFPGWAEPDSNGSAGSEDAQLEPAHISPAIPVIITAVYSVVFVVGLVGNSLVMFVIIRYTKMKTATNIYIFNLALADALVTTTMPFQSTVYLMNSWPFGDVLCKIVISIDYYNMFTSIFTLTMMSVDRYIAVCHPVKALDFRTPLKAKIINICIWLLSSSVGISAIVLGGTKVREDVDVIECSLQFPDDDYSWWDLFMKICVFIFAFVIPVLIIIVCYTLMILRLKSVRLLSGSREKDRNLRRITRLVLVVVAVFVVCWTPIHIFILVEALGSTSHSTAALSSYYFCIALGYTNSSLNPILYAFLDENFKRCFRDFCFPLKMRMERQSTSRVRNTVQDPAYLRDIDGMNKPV

Cc1cc(O)cc(C)c1C[C@H](N)C(=O)N[C@H](CCCNC(=N)N)C(=O)N[C@@H](Cc1ccccc1)C(=O)N[C@@H](CCCCN)C(N)=O
Ki: 2410 nM
